Reference: US20220118118A1, “BENZAZEPIN-L,7-DIOL-DERIVED RADIOLABELED LIGANDS WITH HIGH IN VIVO NMDA SPECIFICITY” (ETH ZURICH, priority 2018, published 2022)

Amino acid sequences for entries named in this document (tags omitted). Residues count along the entry.
UniProt Q00960, 27-1482 limits assumed: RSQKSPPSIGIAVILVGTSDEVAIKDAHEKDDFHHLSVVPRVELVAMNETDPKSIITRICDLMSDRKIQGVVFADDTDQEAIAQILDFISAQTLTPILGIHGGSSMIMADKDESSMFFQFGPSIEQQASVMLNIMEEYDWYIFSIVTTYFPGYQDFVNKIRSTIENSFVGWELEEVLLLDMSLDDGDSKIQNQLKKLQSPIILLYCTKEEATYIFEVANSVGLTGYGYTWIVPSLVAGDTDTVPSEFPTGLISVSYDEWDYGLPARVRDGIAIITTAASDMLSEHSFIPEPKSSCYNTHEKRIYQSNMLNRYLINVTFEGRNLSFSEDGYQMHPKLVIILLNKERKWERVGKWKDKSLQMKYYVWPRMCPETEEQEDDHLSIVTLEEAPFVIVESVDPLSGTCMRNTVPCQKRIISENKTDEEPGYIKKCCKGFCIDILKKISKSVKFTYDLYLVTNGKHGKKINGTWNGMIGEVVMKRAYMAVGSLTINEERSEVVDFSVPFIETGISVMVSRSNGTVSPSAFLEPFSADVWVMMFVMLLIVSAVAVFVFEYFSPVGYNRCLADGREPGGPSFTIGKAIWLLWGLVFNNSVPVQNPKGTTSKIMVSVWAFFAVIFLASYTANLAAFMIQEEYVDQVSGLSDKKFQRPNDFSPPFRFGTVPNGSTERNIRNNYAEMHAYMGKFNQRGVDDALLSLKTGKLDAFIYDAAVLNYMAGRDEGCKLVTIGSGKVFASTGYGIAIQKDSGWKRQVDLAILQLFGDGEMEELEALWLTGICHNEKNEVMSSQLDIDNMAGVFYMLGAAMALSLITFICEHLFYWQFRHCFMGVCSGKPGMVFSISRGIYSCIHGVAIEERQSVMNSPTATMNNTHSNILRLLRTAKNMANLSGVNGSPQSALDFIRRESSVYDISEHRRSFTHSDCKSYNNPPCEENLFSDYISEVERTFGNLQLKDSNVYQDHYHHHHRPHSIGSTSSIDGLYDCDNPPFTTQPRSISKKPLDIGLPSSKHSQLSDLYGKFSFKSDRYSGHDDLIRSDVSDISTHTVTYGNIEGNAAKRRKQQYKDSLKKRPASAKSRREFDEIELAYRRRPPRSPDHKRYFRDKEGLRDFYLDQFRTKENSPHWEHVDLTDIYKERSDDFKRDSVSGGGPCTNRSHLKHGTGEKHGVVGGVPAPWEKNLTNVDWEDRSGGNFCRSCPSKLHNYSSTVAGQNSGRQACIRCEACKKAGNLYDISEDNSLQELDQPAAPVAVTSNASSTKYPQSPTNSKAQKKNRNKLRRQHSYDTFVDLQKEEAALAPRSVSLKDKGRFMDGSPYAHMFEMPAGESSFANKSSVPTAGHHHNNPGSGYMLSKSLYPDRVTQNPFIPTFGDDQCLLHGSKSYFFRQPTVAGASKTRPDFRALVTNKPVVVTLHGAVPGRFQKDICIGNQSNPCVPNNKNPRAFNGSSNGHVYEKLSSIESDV
UniProt Q9R0C9, whole entry: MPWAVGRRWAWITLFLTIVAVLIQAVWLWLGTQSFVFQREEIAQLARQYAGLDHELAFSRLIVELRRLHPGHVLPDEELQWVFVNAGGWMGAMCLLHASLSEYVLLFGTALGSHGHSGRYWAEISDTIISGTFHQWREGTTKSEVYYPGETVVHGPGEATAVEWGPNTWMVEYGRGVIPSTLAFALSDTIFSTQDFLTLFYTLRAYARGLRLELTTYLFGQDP

Assays:
GluN2B subunit = GluN2B subunit (Rattus norvegicus, UniProt P35439+Q00960); test: GluN2B binding competition assay with [3H]ifenprodil; settings: tested as the radiolabelled form; for Selectivity (σ1R/GluN2B): ratio of Ki values σ1R/GluN2B; for Ki: read-out: GluN2B Affinity (Ki), rat membrane homogenates, [3H]ifenprodil, 25° C., 60 min, Ki from IC50 by Cheng-Prusoff
σ1 receptor (σ1R) = σ1 receptor (σ1R) (Rattus norvegicus, UniProt Q9R0C9); test: σ1R binding competition assay with [3H](+)-pentazocine; settings: read-out: σ1R Affinity (Ki), rat membrane homogenates, 37° C., 150 min, Ki from IC50 by Cheng-Prusoff, tested as the radiolabelled form

Selectivity (σ1R/GluN2B) (GluN2B subunit) | Ki (GluN2B subunit) [nM] | Ki (σ1 receptor (σ1R)) [nM] | Structure (SMILES)
52.1 | 10.4 | – | Oc1ccc2c(c1)CCN(CCCCc1ccc(F)cc1)CC2O (stereo not drawn)
– | – | 12 | COc1ccc2c(c1)CCN(CCCCc1ccc(F)cc1)CC2O (stereo not drawn)
0.9 | – | – | COc1ccc2c(c1)CCN(CCCCc1ccccc1F)CC2O (stereo not drawn)
39.6 | 10.4 | – | Oc1ccc2c(c1)CCN(CCCCc1ccccc1F)CC2O (stereo not drawn)
